# Molecular target: T1, substance P receptor (Homo sapiens, UniProt P25103)
# Amino acid sequences for entries named in this document (tags omitted).
# UniProt P25103, whole entry: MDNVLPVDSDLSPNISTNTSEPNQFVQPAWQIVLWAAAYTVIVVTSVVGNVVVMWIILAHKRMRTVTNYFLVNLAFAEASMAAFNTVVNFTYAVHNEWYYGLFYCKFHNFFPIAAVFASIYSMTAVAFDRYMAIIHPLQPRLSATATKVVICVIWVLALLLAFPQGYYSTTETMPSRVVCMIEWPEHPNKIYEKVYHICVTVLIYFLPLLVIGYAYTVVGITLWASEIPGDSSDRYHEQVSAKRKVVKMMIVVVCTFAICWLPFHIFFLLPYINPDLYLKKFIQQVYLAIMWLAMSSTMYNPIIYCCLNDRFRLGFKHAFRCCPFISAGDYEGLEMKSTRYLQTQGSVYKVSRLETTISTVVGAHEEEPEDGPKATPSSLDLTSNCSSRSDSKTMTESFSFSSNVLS
# T1 construct: The receptor was prepared from human lymphoblast cells (IM-9); endogenous in cells; host or cells: IM-9 human lymphoblast cells (membrane preparation)
# Experiment: Radioligand receptor binding inhibitory activity using receptor from human lymphoblast cells (IM-9)
# Settings: 125I-BHSP radioligand, receptor from IM-9 cells, 25° C. for 30 minutes
# Protocol: Radioligand receptor binding inhibitory activity Binding inhibitory activity using receptor from human lymphoblast cells (IM-9)
# The receptor was prepared from human lymphoblast cells (IM-9). IM-9 cells (2×10^5 cells/ml) were inoculated and incubated for 3 days (one liter), which was then subjected to centrifuge for 5 minutes at 500×g to obtain cell pellets. […] The residue was washed twice with 30 ml of the above-mentioned buffer, which was then preserved frozen (−80° C.) as a specimen of the receptor.
# The specimen was suspended in a reaction buffer (50 mM Tri-HCl buffer (pH 7.4), 0.02% bovine serum albumin, 1 mM phenylmethylsulfonyl fluoride, […], […] bacitracin, 3 mM manganese chloride) and 100 ul portion was the suspension was used in the reaction. […] The amount of nonspecific binding was determined by adding substance P at a final concentration of 2×10^−6M. After the reaction, using a cell harvester (290 PHD, Cambridge Technology, Inc, U.S.A.), rapid filtration was carried out through a glass filter (GF/B, Whatman, U.S.A.) to stop the reaction. After washing three times with 250 ul of 50 mM of Tris-HCl buffer (pH 7.4) containing 0.02% bovine serum albumin, the radioactivity remaining on the filter was determined with a gamma counter. Before use, the filter was immersed in 0.1% polyethyleneimine for 24 hours and air-dried.
row,IC50 [pM],Compound
1,170,"Cc1ccc(-c2c3n(c(=O)c4ncccc24)CCC(C)CN(Cc2cc(C(F)(F)F)cc(C(F)(F)F)c2)C3=O)cc1 (racemic) [Reference Example 70, (+/−)-7-[3,5-Bis(trifluoromethyl)benzyl]-6,7,8,9,10,11-hexahydro-9-methyl-5-(4-methylphenyl)-6,13-dioxo-13H-[1,4]diazocino[2,1-g][1,7]naphthyridine]"
2,430,"Cc1ccc(-c2c3n(c(=O)c4ncccc24)CC[C@@H](C)CN(Cc2cc(C(F)(F)F)cc(C(F)(F)F)c2)C3=O)cc1 [Reference Example 72, (9R)-7-[3,5-Bis(trifluoromethyl)benzyl]-6,7,8,9,10,11-hexahydro-9-methyl-5-(4-methylphenyl)-6,13-dioxo-13H-[1,4]diazocino[2,1-g][1,7]naphthyridine]"

# From US20020132817A1, “Heterocyclic compounds, their production and use” (priority 1998, published 2002)
